From patent US20230346796A1 (priority 2010, published 2023)

Test system: healthy volunteers and patients undergoing a colonoscopy
Test: CNS 7056-fentanyl interaction MOAA/S pharmacodynamic analysis
Conditions: for Scoping Factor: N 36
[1] = Run FEN16S, zero score -1.5, five score 5.1
[2] = Run FEN17S, zero score -1.5, five score 5.0
[3] = Run FEN20S, zero score -1.25, five score 5.05
[4] = Run FEN21S, zero score -1.3, five score 5.05
[5] = Run FEN22S, zero score -1.3, five score 5.05
[6] = Run FEN23S, zero score -1.25, five score 5.0
[7] = Run FEN24S, zero score -1.25, five score 5.0
[8] = Run FEN25S, zero score -1.25, five score 5.0
[9] = Run FEN27S, zero score -1.25, five score 5.0
[10] = Run FEN28S, zero score -1.25, five score 5.0
[11] = Run FEN29S, zero score -1.25, five score 5.0
[12] = Run FEN30S, zero score 0.01, five score 5.0
[13] = Studies CNS 7056-001 and -002 combined, number of records
[14] = model CNS7056FEN19S, three-compartment
[15] = model CNS7056FEN19S, three-compartment, RSE not given
[16] = model CNS7056FEN26S, three-compartment
[17] = model CNS7056FEN135S19, four-compartment
[18] = model CNS7056FEN135S19, four-compartment, RSE not given
[19] = model CNS7056FEN135S26, four-compartment
[20] = model CNS7056FEN159S19, three-compartment, heart-rate predicting cardiac output and central volume
[21] = model CNS7056FEN159S19, three-compartment, heart-rate predicting cardiac output and central volume, RSE not given
[22] = model CNS7056FEN159S26, three-compartment, heart-rate predicting cardiac output and central volume

COC(=O)CC[C@@H]1N=C(c2ccccn2)c2cc(Br)ccc2-n2c(C)cnc21 [CNS 7056, 3-[(4S)-8-bromo-1-methyl-6-(2-pyridinyl)-4H-imidazo[1,2-a][1,4]benzodiazepin-4-yl] propionic methyl ester]
EMIN (first line so headed), eta IIV (RSE%) (CNS7056FEN32S): 29.06 (11.6) | EMIN (second line so headed), eta IIV (RSE%) (CNS7056FEN32S): 93.78 (38.1) | Fentanyl concentration-equivalence, theta (RSE%) (CNS7056FEN32S): 32.0 (8.87) | Hill Coefficient, eta IIV (RSE%) (CNS7056FEN32S): 54.25 (11.9) | Hill Coefficient, theta (RSE%) (CNS7056FEN32S): 4.30 (2.06) | ke0, theta (RSE%) (CNS7056FEN32S): 12.4 (1.38) h^-1 | EC50, theta (RSE%) (CNS7056FEN32S, zero scores changed to -1.30): 0.375 (1.63) µg/ml | EC50 (Geom. Mean (Typical Value)): 0.380 µg/mL (≈ 0.865 µM) | EMAX (Geom. Mean (Typical Value)): 4.84 | EMIN (Geom. Mean (Typical Value)): -1.54 | Fentanyl-equivalence factor (Geom. Mean (Typical Value)): 28.0 | Hill coefficient (Geom. Mean (Typical Value)): 5.16 | ke0 (Geom. Mean (Typical Value)): 12.1 h⁻¹ | Scoping Factor (Geometric Mean): 0.129 | Concentration -equivalence factor (Geometric Mean, N 99): 31.65 | EC50 (Geometric Mean, N 99): 0.372 µg/mL (≈ 0.847 µM) | Gamma (Geometric Mean, N 99): 5.480 | ke0 (Geometric Mean, N 99): 11.98 h⁻¹ | Scoping Factor (Maximum): 0.587 | Concentration -equivalence factor (Maximum, N 99): 330.8 | EC50 (Maximum, N 99): 0.736 µg/mL (≈ 1.68 µM) | Gamma (Maximum, N 99): 21.31 | ke0 (Maximum, N 99): 23.30 h⁻¹ | Scoping Factor (Mean): 0.178 | Concentration -equivalence factor (Mean, N 99): 40.78 | EC50 (Mean, N 99): 0.385 µg/mL (≈ 0.876 µM) | Gamma (Mean, N 99): 6.435 | ke0 (Mean, N 99): 12.35 h⁻¹ | Scoping Factor (Median): 0.110 | Concentration -equivalence factor (Median, N 99): 27.99 | EC50 (Median, N 99): 0.380 µg/mL (≈ 0.865 µM) | Gamma (Median, N 99): 5.229 | ke0 (Median, N 99): 12.14 h⁻¹ | Scoping Factor (Minimum): 0.023 | Concentration -equivalence factor (Minimum, N 99): 5.94 | EC50 (Minimum, N 99): 0.202 µg/mL (≈ 0.46 µM) | Gamma (Minimum, N 99): 1.151 | ke0 (Minimum, N 99): 5.58 h⁻¹ | inter-subject variability in the pharmacodynamic interaction (Run FEN06S): 162% | EMAX, fitted [1]: 4.97 | EMIN, fitted [1]: -1.96 | EMAX, fitted [2]: 4.98 | EMIN, fitted [2]: -1.83 | EMAX, fitted [3]: 4.95 | EMIN, fitted [3]: -1.65 | EMAX, fitted [4]: 4.90 | EMIN, fitted [4]: -1.55 | EMAX, fitted [5]: 4.95 | EMIN, fitted [5]: -1.72 | EMAX, fitted [6]: 4.85 | EMIN, fitted [6]: -1.48 | EMAX, fitted [7]: 4.85 | EMIN, fitted [7]: -1.51 | EMAX, fitted [8]: 4.88 | EMIN, fitted [8]: -1.67 | EMAX, fitted [9]: 4.91 | EMIN, fitted [9]: -1.62 | EMAX, fitted [10]: 4.87 | EMIN, fitted [10]: -1.45 | EMAX, fitted [11]: 4.89 | EMIN, fitted [11]: -1.58 | EMAX, fitted [12]: 4.94 | EMIN, fitted [12]: -0.105 | Total Scores, Observed, MOAA/S score 0 [13]: 435 | Total Scores, Observed, MOAA/S score 1 [13]: 141 | Total Scores, Observed, MOAA/S score 2 [13]: 237 | Total Scores, Observed, MOAA/S score 3 [13]: 330 | Total Scores, Observed, MOAA/S score 4 [13]: 477 | Total Scores, Observed, MOAA/S score 5 [13]: 1144 | EC50 (Subject 1210): 0.269 µg/mL (≈ 0.612 µM) | EMAX (Subject 1210): 4.84 | EMIN (Subject 1210): -1.54 | Fentanyl-equivalence factor (Subject 1210): 126.8 | Hill coefficient (Subject 1210): 6.596 | ke0 (Subject 1210): 6.18 h⁻¹ | EC50, theta (RSE%) [14]: 0.333 (4.71) µg/ml | Fentanyl concentration-equivalence, theta (RSE%) [14]: 28.2 (30.6) | Hill coefficient (y), theta (RSE%) [14]: 4.69 (6.09) | ke0, theta (RSE%) [14]: 12.6 (4.36) h^-1 | EMAX, theta (RSE%) [15]: 5.0 (--- ) | EMIN, theta (RSE%) [15]: 0.0 (--- ) | EC50, theta (RSE%) [16]: 0.380 (0.94) µg/ml | EMAX, theta (RSE%) [16]: 4.84 (0.15) | EMIN, theta (RSE%) [16]: -1.54 (1.75) | Fentanyl concentration-equivalence, theta (RSE%) [16]: 28.0 (24.8) | Hill coefficient (y), theta (RSE%) [16]: 5.16 (2.32) | ke0, theta (RSE%) [16]: 12.1 (0.91) h^-1 | EC50, theta (RSE%) [17]: 0.339 (1.36) µg/ml | Fentanyl concentration-equivalence, theta (RSE%) [17]: 30.9 (20.4) | Hill coefficient (y), theta (RSE%) [17]: 4.74 (2.06) | ke0, theta (RSE%) [17]: 12.8 (1.01) h^-1 | EMAX, theta (RSE%) [18]: 5.0 (--- ) | EMIN, theta (RSE%) [18]: 0.0 (--- ) | EC50, theta (RSE%) [19]: 0.386 (2.58) µg/ml | EMAX, theta (RSE%) [19]: 4.84 (0.17) | EMIN, theta (RSE%) [19]: -1.49 (1.67) | Fentanyl concentration-equivalence, theta (RSE%) [19]: 30.6 (17.9) | Hill coefficient (y), theta (RSE%) [19]: 5.23 (0.54) | ke0, theta (RSE%) [19]: 12.3 (1.19) h^-1 | EC50, theta (RSE%) [20]: 0.333 (0.84) µg/ml | Fentanyl concentration-equivalence, theta (RSE%) [20]: 28.9 (22.5) | Hill coefficient (y), theta (RSE%) [20]: 4.7 (2.34) | ke0, theta (RSE%) [20]: 12.6 (1.14) h^-1 | EMAX, theta (RSE%) [21]: 5.0 (--- ) | EMIN, theta (RSE%) [21]: 0.0 (--- ) | EC50, theta (RSE%) [22]: 0.381 (4.17) µg/ml | EMAX, theta (RSE%) [22]: 4.84 (0.13) | EMIN, theta (RSE%) [22]: -1.52 (1.76) | Fentanyl concentration-equivalence, theta (RSE%) [22]: 28.9 (19.9) | Hill coefficient (y), theta (RSE%) [22]: 5.19 (0.49) | ke0, theta (RSE%) [22]: 12.1 (0.69) h^-1

Values after ≈ are worked out from the molar mass of the structure shown.
